Earlier results on one compound are cited in US20140107050A1, “INCREASING BIOAVAILABILITY OF N-COUMAROYLDOPAMINE THROUGH CO-ADMINISTRATION WITH A CATECHOL-O-MEHTYLTRANSFERASE (COMT) INHIBITOR” (Redefine Nutrition, LLC, priority 2012, published 2014).

The target in the data set is T1, catechol-o-methyltransferase (COMT) (Homo sapiens, UniProt P21964).
T1 sequence (P21964 1-271): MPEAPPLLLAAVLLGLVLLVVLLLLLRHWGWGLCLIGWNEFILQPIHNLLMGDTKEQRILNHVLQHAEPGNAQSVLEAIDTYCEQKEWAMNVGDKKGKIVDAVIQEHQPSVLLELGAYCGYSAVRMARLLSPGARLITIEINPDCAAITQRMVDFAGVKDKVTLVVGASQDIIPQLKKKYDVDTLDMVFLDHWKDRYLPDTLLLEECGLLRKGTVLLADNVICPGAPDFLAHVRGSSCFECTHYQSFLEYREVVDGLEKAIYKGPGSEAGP
The settings on record: values taken from cited literature; read-out: half maximal inhibitory concentration (IC50) for COMT inhibition.

The structures appear in SMILES notation. pIC50: −log10 of the molar value.

Regarding `O=C(O[C@@H]1Cc2c(O)cc(O)cc2O[C@@H]1c1cc(O)c(O)c(O)c1)c1cc(O)c(O)c(O)c1` [Epigallocatechin gallate (EGCG), Epigallocatechin gallate], the pIC50 is about 6.70.
